Laboratory results published in patent US4921808A, “Method for determining follicle stimulating hormone” (The Albany Medical College of Union University, priority 1986, dated 1990).

Test system: Calf Testes FSH-Receptors
Assay: Radio-ligand-receptor assay (RRA): binding of [125I]-hFSH to "crude" calf testes membranes
Conditions: calf testes plasma membrane extract with about 5 to about 25 fmol receptors per mg membrane wet weight, standard conditions of Example 8

electrophoretically purified, radiolabeled FSH: radio-iodinated FSH purified by 7.5% polyacrylamide gel electrophoresis and eluted from gel slices (Example 5)
ratio of specific binding to nonspecific binding: at least 5
